# Results: PubChem BioAssay AID1509 (The Scripps Research Institute Molecular Screening Center, 2009)
# Protein sequences, listed by entry. Tags and fused reporters are not part of them.
# UniProt O95977, whole entry: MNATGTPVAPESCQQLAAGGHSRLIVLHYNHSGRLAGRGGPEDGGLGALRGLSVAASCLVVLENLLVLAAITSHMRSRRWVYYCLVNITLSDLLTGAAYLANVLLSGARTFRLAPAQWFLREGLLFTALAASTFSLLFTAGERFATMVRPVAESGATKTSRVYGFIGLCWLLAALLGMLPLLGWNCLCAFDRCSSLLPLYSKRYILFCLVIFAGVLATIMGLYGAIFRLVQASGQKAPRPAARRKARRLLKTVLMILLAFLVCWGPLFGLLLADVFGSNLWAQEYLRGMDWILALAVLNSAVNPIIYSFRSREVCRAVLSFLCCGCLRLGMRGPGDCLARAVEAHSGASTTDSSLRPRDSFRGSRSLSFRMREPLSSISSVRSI
# The entries are a selection whose mix differs from that of the whole data set. Activity calls are given as the source filed them. Rule as the data show it: active = activation above about 11%; inactive = the rest.
# Molecular target: Sphingosine 1-phosphate receptor 4 (Homo sapiens) (UniProt O95977)
# Assay: activators of human S1P4 receptor – cell-based, primary screen (AID 1509);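 also: 0% = DMSO vehicle and 100% = reference agonist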
# Conditions: S1P4-expressing cell line, agonist reporter assay; at 4.98 µM; stronger effect = higher value
row,SMILES,activation
1,CP(=O)(Nc1ccccc1Br)Oc1ccccc1 (stereo not drawn),inactive: 0.58%
2,COc1ccccc1OP(C)(=O)Nc1ccccc1 (stereo not drawn),inactive: 0.92%
3,CP(=S)(Nn1cnnc1)Oc1ccccc1 (stereo not drawn),inactive: 5.04%
4,Cc1cc(C)cc(OP(C)(=O)Nc2ccc(SC(F)(F)F)cc2)c1 (stereo not drawn),inactive: -1.16%
5,CCc1ccc(OP(C)(=O)N2CCN(c3ccc([N+](=O)[O-])cc3)CC2)cc1 (stereo not drawn),inactive: 0.72%
6,CP(=O)(NC(=O)Nc1ccccc1)Oc1ccccc1 (stereo not drawn),inactive: 0.71%
7,CP(=O)(Oc1ccccc1)OC(c1ccccc1)C(F)(F)F (stereo not drawn),inactive: 0.85%
8,Cc1cccc(C)c1OP(C)(=O)Nc1ccc(SC(F)(F)F)cc1 (stereo not drawn),inactive: 0.41%
9,CP(=O)(Nc1ccc(SC(F)(F)F)cc1)Oc1ccc(Cl)cc1 (stereo not drawn),inactive: -2.04%
10,CP(=O)(Nc1ccccn1)Oc1ccc(Cl)cc1 (stereo not drawn),inactive: -1.71%
11,CCOC(=O)c1ccc(NP(C)(=O)Oc2ccc(OC)cc2)cc1 (stereo not drawn),inactive: 3.28%
12,CCOP(C)(=S)SCC(=O)NC(C)C(=O)O (stereo not drawn),inactive: 1.34%
13,CCN(CC)CCCOC(=O)C(O)(c1ccccc1)c1ccccc1,inactive: 0.42%
14,O=[N+]([O-])c1ccc2c(c1)C=Nc1ccccc1O2,inactive: 1.1%
15,Cc1cccc(C)c1OP(C)(N)=O (stereo not drawn),inactive: 1.17%
16,CC(C)(C)c1ccc(OP(C)(=O)Nc2ccc(SC(F)(F)F)cc2)cc1 (stereo not drawn),inactive: -0.58%
17,Cc1cc(C)cc(OP(C)(N)=O)c1 (stereo not drawn),inactive: -0.93%
18,COc1ccc(OP(C)(=O)Nc2cccc(F)c2)cc1 (stereo not drawn),inactive: -1.59%
19,COc1ccccc1OP(C)(=O)Nc1cc(Cl)ccc1C (stereo not drawn),inactive: 1.41%
20,Cc1ccc(NP(C)(=O)Oc2ccccc2)c(C)c1 (stereo not drawn),inactive: 1.74%
21,COc1ccccc1OP(C)(=O)Nc1ccc(C)cc1 (stereo not drawn),inactive: 1.9%
22,CCOC(=O)c1ccc(NP(C)(=O)Oc2ccccc2)cc1 (stereo not drawn),inactive: 1.68%
23,O=C(O)c1cccc(Nc2c([N+](=O)[O-])cc([N+](=O)[O-])cc2[N+](=O)[O-])c1,inactive: -0.58%
24,CC1=NCCc2c1[nH]c1ccccc21.O=[N+]([O-])c1cc([N+](=O)[O-])c(O)c([N+](=O)[O-])c1,inactive: -1.64%
25,CCOC(=O)c1ccc(NP(C)(=O)Oc2cc(C)cc(C)c2)cc1 (stereo not drawn),inactive: -0.72%
26,Cc1cc(C)cc(OP(C)(=O)Nc2ccc(C)cc2C)c1 (stereo not drawn),inactive: 0.46%
27,COc1ccccc1OP(C)(=O)Nc1cccc(Br)c1 (stereo not drawn),inactive: 1.01%
28,Cc1ccc(C)c(NP(C)(=O)Oc2ccccc2)c1 (stereo not drawn),inactive: 0.35%
